According to PubChem BioAssay (EPA / NIEHS):
The entries are a selection whose mix differs from that of the whole data set. Inconclusive results are not listed. Activity calls are given as the source filed them. How the source made its calls, unless noted: active means hit-call score of the fitted dose curve at least 0.9, where 1 is the maximum; inactive means score below 0.9.

By UniProt entry, the sequences of proteins in these tests, tags left out.
UniProt P16581, whole entry: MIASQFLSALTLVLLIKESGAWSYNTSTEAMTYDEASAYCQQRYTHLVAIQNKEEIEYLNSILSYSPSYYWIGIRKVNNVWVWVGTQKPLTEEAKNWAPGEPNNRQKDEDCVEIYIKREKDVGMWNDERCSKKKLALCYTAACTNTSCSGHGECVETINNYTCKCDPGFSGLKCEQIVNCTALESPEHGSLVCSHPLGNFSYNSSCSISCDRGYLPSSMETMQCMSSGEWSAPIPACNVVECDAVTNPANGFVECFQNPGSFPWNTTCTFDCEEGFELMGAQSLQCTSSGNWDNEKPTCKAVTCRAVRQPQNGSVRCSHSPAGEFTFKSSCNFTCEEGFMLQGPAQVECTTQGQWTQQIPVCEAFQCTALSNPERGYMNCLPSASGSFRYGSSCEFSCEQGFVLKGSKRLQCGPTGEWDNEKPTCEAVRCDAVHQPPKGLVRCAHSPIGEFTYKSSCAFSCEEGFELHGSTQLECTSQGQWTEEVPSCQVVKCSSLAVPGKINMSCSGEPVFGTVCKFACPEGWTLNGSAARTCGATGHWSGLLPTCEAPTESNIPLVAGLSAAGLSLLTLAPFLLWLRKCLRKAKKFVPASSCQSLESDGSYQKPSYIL
UniProt P11712, whole entry: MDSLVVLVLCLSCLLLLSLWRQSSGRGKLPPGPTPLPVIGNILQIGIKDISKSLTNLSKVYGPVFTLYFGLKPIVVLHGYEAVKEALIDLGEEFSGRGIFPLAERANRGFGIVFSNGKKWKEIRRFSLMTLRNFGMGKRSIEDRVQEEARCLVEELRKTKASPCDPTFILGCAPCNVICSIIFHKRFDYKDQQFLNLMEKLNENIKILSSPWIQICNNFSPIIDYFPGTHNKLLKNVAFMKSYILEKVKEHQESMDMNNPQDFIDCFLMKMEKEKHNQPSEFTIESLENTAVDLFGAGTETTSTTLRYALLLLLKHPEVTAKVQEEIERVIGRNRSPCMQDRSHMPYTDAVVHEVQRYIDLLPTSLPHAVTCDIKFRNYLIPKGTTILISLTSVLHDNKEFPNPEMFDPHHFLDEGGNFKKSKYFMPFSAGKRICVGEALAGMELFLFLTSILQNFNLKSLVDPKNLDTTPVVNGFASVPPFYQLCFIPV
UniProt Q92851, whole entry: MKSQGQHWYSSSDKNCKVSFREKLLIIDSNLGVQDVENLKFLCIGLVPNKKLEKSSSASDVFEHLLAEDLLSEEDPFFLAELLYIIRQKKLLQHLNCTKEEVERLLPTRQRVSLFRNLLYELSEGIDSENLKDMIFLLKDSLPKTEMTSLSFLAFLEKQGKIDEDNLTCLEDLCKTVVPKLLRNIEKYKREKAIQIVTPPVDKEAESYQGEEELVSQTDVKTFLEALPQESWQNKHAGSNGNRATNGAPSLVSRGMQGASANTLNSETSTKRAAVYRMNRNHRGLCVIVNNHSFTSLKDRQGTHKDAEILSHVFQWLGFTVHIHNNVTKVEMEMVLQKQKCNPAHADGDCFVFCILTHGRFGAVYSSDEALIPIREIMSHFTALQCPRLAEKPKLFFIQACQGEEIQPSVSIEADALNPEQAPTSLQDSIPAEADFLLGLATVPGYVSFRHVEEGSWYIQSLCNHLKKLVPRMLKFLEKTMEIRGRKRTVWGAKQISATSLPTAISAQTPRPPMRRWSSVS
UniProt Q13131, whole entry: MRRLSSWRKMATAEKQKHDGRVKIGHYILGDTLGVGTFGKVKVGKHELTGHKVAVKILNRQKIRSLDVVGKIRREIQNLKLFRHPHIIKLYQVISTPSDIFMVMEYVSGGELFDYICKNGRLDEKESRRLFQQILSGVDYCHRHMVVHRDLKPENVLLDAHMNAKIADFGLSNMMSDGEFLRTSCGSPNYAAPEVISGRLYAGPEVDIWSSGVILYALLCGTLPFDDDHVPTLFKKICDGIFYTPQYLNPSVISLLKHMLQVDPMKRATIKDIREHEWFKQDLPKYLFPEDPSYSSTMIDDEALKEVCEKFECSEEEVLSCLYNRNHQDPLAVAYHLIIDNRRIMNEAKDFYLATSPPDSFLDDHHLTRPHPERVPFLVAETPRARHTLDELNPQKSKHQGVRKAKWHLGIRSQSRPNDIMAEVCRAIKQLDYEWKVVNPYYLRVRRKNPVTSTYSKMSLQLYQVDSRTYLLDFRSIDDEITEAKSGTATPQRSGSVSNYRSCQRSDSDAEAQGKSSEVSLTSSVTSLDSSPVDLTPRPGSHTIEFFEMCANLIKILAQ

Columns and labels:
[1] = read-out: Monocyte Chemoattractant Protein-1 (MCP1), CCL2 (gene 6347); assay: BSK_SAg_MCP1: BioMAP Diversity Plus: SAg Assay for Monocyte Chemoattractant Protein-1 (MCP1) Biomarker Activity (AID 2283090); conditions: actives raise or lower the signal; primary human HUVEC with PBMC
Experimental: BSK_SAg is a cell-based, multiplexed-readout assay that uses umbilical vein endothelium and peripheral blood mononuclear cells, a human vascular primary cell co-culture, with measurements taken at 24 hours after chemical dosing in a 96-well plate.BSK_SAg_MCP1 is an assay component measured in the BSK_SAg assay. It measures MCP-1 antibody related to regulation of gene expression using ELISA technology.Data from the assay component BSK_SAg_MCP1 was analyzed into 1 assay endpoint. This assay endpoint, BSK_SAg_MCP1, was analyzed with bidirectional fitting relative to DMSO as the negative control and baseline of activity. Using a type of binding reporter, gain or loss-of-signal activity can be used to understand changes in the signaling as they relate to the gene CCL2. Furthermore, this assay endpoint can be referred to as a primary readout, because this assay has produced multiple assay endpoints where this one serves a signaling function. To generalize the intended target to other relatable targets, this assay endpoint is annotated to the cytokine intended target family, where the subfamily is chemotactic factor.
The levels of cell surface (or secreted, indicated by the prefix "s") biomarker endpoints were measured by ELISA. Overt cytotoxicity to cells in confluent adherent cultures (all systems other than the BT system) was assessed by measuring total protein levels using sulforhodamine B (SRB) staining in parallel cultures at the time of biomarker measurements, indicated as SRB endpoints. For proliferation assays for adherent cell types, individual cell types are cultured at sub-confluence and relative cell numbers quantified by SRB staining at time points optimized for each system (48 h: 3C and CASM3C systems; 72 h: BT and HDF3CGF systems; 96 h: SAg system). SRB was performed by staining cells with 0.1% SRB after fixation with 10% TCA and reading wells at 560 nm.Viability and proliferation of PBMC (T cells) was quantified by Alamar Blue reduction for the SAg and BT systems. For PBMC viability (referred to as PBMC Cytotoxicity within the assay endpoint names), cells were plated (75,000/well in a 96-well plate) and then chemical samples added for 1 h before addition of activators, SEB and TSST-1 (20 ng/mL final concentration each). Cells were incubated for 90 h. Then, Alamar Blue (20 uL/well) (Invitrogen, Cat DAL1100) was added for 6 h, and the plates were read with a fluorescence microplate reader at 546/580 nm (excitation/emission). For PBMC proliferation, cells were plated and activated as above but incubated for only 16 h prior to addition of Alamar Blue. Plates were read after 6 h.

[2] = read-out: E-selectin (Homo sapiens) (UniProt P16581); assay: BSK_SAg_Eselectin: BioMAP Diversity Plus: SAg Assay for Eselectin Biomarker Activity (AID 2283091); conditions: actives raise or lower the signal; primary human HUVEC with PBMC
Summary of the method: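 Endpoint values derive from bidirectional fitting relative to DMSO, using ELISA-measured E-selectin in a human vascular co-culture (umbilical vein endothelium plus PBMC) sampled 24 h after dosing.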

[3] = read-out: Monokine induced gamma interferon (MIG), CXCL9 (gene 4283); assay: BSK_SAg_MIG: BioMAP Diversity Plus: SAg Assay for Monokine induced gamma interferon (MIG) Biomarker Activity (AID 2283092); conditions: actives raise or lower the signal; primary human HUVEC with PBMC
Summary of the method: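 Measures CXCL9 protein by ELISA in a human vascular primary-cell co-culture (umbilical vein endothelium with PBMC) 24 h after chemical addition. Activity is scored up or down from the DMSO control.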

[4] = BSK_SAg_PBMCCytotoxicity: PBMC Cytotoxicity Assessment in the BioMAP Diversity Plus: SAg Assay (AID 2283093); conditions: primary human HUVEC with PBMC;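 further: fitted both ways against DMSO so a hit may be loss or gain of signal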
Summary of the method: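 Human umbilical vein endothelial cells co-cultured with PBMC; PBMC (75,000/well) pre-treated with compound 1 h, then activated with SEB and TSST-1 (20 ng/mL final each) for 90 h. Alamar Blue added 6 h, fluorescence 546/580 nm; bidirectional fit versus DMSO.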

[5] = read-out: Interleukin-8 (IL8), CXCL8 (gene 3576); assay: BSK_SAg_IL8: BioMAP Diversity Plus: SAg Assay for Interleukin-8 (IL8) Biomarker Activity (AID 2283094); conditions: actives raise or lower the signal; primary human HUVEC with PBMC
Summary of the method: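 Human umbilical vein endothelial cells co-cultured with PBMC, stimulated with superantigen; IL-8 measured by ELISA 24 h after chemical dosing. Bidirectional fitting versus DMSO; SRB staining in parallel cultures tracks cytotoxicity.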

[6] = BSK_SAg_Proliferation: Cell Proliferation Assessment in the BioMAP Diversity Plus: SAg Assay (AID 2283095); conditions: primary human HUVEC with PBMC
Summary of the method: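 Human umbilical vein endothelial cells co-cultured with PBMC; sulforhodamine B total-protein staining (0.1% SRB after 10% TCA fixation, absorbance 560 nm) at 96 h in sub-confluent culture. Fitted bidirectionally against DMSO.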

[7] = BSK_SAg_SRB: Viability Assessment in the BioMAP Diversity Plus: SAg Assay (AID 2283096); conditions: primary human HUVEC with PBMC;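 further: cells read one day after compound addition; hits may be either gain or loss of signal compared with DMSO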
Summary of the method: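 Endothelial/PBMC primary human co-culture; compound 24 h; fix 10% TCA, stain 0.1% SRB, A560; protein content as cytotoxicity proxy; bidirectional curve fit, DMSO = baseline.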

[8] = target: human CYP2C9, CYP2C9 (gene 1559) (UniProt P11712); assay: NVS_ADME_hCYP2C9: NovaScreen (NVS) CYP450-related Enzyme Activity (ADME) Assay for human CYP2C9 (AID 2283108; active means hit-call score of the fitted dose curve at least 0.9, where 1 is the maximum)
Summary of the method: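 Cell-free assay of recombinant human CYP2C9 produced in Sf9 cells, with enzyme activity read by fluorescence intensity 0.75 h after compound addition. Loss of signal versus an acetonitrile negative control indicates inhibition. Primary screen used 10 uM in duplicate; actives were retested in concentration series.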

[9] = target: human Caspase 10 (CASP10), CASP10 (gene 843) (UniProt Q92851); assay: NVS_ENZ_hCASP10: NovaScreen (NVS) Enzymatic Assay for human Caspase 10 (CASP10) (AID 2283133; active means hit-call score of the fitted dose curve at least 0.9, where 1 is the maximum)
Experimental: NVS_ENZ_hCASP10 is a biochemical, single-readout assay that uses extracted gene-proteins from E. coli in a cell-free assay. Measurements were taken 1 hour after chemical dosing in a 96-well plate.NVS_ENZ_hCASP10 is one of one assay component(s) measured or calculated from the NVS_ENZ_hCASP10 assay. It is designed to make measurements of enzyme activity, a form of enzyme reporter, as detected with fluorescence intensity signals by Fluorescence technology.Data from the assay component NVS_ENZ_hCASP10 was analyzed into 1 assay endpoint. This assay endpoint, NVS_ENZ_hCASP10, was analyzed in the positive analysis fitting direction relative to DMSO as the negative control and baseline of activity. Using a type of enzyme reporter, loss-of-signal activity can be used to understand changes in the enzymatic activity as they relate to the gene CASP10. Furthermore, this assay endpoint can be referred to as a primary readout, because this assay has produced multiple assay endpoints where this one serves a enzymatic activity function. To generalize the intended target to other relatable targets, this assay endpoint is annotated to the protease intended target family, where the subfamily is cysteine protease. […]

[10] = target: human AMP-activated Protein Kinase, alpha 1 (AMPKa1), PRKAA1 (gene 5562) (UniProt Q13131); assay: NVS_ENZ_hAMPKa1: NovaScreen (NVS) Enzymatic Assay for human AMP-activated Protein Kinase, alpha 1 (AMPKa1) (AID 2283130; active means hit-call score of the fitted dose curve at least 0.9, where 1 is the maximum)
Summary of the method: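 Recombinant human AMPKα1 activity was measured cell-free by fluorescent substrate conversion with electrophoretic mobility-shift separation, 1 h after dosing. Duplicate single-point screening was at 25 uM; actives (≥30% inhibition) were retested in concentration-response up to 50 uM.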

Measured: AC50

CC(C)OP(C)(=O)OC(C)C
inactive: [1] | [2] | [3] | [4] | [5] | [6] | [7]
active: [8] 2.44 µM

Cc1c([N+](=O)[O-])cccc1[N+](=O)[O-]
active: [6] 0.182 µM
inactive: [1] | [2] | [3] | [4] | [5] | [7] | [9]

Cc1cccc([N+](=O)[O-])c1[N+](=O)[O-]
inactive: [1] | [2] | [3] | [4] | [5] | [6] | [7] | [10]

Cc1ccc([N+](=O)[O-])cc1[N+](=O)[O-]
inactive: [1] | [2] | [3] | [4] | [5] | [6] | [7]

Cc1ccc([N+](=O)[O-])c([N+](=O)[O-])c1
inactive: [3] | [4] | [5] | [7]
active: [1] 12.7 µM | [2] 7.37 µM | [6] 15.6 µM

O=[N+]([O-])c1cccc([N+](=O)[O-])c1
inactive: [1] | [2] | [3] | [4] | [5] | [6] | [7]
